In patent publication US8513187B2, “Soft protease inhibitors, and pro-soft forms thereof” (priority 2009, dated 2013):

Columns and labels:
Sprague-Dawley (SD) rats = conditions: for maximum tolerated dose (MTD): escalating single-dose studies, Sprague-Dawley rats

`C[C@H](N)C(=S)N1CCC[C@H]1B(O)O` was tested. Which toxicity in monkeys (monkeys) did it give?
The toxicity in monkeys was “very toxic”.

Which animals died (Sprague-Dawley (SD) rats; SD rats, 900 mg/kg single dose) does the source give for `C[C@H](NC(=O)[C@@H](N)CCC(=O)O)B(O)O` here?
Its animals died is “three of six”.

Which results are given for `CC(C)[C@H](N)C(=O)N1CCC[C@H]1B(O)O`?
maximum tolerated dose (MTD) (Sprague-Dawley (SD) rats): 0.025 mg/kg; single dose that kills rats (Sprague-Dawley (SD) rats; rats, single dose): 0.05 mg/kg

For `C[C@H](N)C(=O)N1CCC[C@H]1B(O)O`, which “maximum tolerated dose (MTD)” value (Sprague-Dawley (SD) rats) is on record?
Its value is no less than 5 mg/kg.
